Here are results for three compounds from PMC12883167 (Bioorganic & medicinal chemistry letters, 2019).

pIC50: −log10 of the molar value.

The target in this assay is T1, MALT1 protease (Homo sapiens, UniProt Q9UDY8).
T1 sequence (Q9UDY8 1-824): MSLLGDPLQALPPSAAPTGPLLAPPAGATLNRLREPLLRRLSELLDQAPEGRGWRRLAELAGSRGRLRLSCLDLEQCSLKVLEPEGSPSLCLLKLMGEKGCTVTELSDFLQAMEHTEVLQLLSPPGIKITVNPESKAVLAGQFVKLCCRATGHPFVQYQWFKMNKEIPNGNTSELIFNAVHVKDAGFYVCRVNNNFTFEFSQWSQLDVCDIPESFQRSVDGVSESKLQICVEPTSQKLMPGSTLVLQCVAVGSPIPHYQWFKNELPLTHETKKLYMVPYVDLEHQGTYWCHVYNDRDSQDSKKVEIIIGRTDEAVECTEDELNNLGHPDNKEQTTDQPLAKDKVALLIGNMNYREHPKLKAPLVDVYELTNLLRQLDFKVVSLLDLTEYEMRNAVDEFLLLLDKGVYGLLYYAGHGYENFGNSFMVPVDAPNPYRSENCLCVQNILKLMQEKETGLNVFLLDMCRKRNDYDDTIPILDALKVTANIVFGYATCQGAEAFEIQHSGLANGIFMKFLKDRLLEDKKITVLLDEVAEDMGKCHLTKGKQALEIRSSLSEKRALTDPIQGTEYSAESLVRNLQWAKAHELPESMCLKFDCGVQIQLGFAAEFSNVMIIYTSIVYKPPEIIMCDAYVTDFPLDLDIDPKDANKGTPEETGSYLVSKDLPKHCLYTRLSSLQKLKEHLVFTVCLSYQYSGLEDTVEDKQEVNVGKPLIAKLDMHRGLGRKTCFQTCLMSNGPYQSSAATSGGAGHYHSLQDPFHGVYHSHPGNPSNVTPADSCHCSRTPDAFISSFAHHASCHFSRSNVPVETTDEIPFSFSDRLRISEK
The assay is classed as cell-based. Conditions: Cell (Glo), GloSensor reporter, PMA/IO activated Raji cells.
`CC(C)[C@H](NC(=O)c1ccc(Br)cc1)C(=O)N[C@@H](CO)C(=O)N[C@@H](CCCNC(=N)N)C(=O)CF` [Compound 44]: the pIC50 is 7.21. To `CC(C)C[C@H](NC(=O)OCc1ccccc1)C(=O)N[C@H](C(=O)N1CCC[C@H]1C(=O)N[C@@H](CCCNC(=N)N)C(=O)CF)C(C)C` [Compound 1, Z-LVPR-fmk] belongs 6.28; to `CC(C)[C@H](NC(=O)OCc1ccccc1)C(=O)N[C@@H](CCCNC(=N)N)C(=O)N1CCC[C@H]1C(=O)N[C@@H](CCCNC(=N)N)C(=O)CF` [Z-VRPR-fmk, reference compound], 5.58.

For orientation: pIC50 means the IC50 on a negative log10 scale, so that one unit is a factor of ten. The low end stands for a large IC50, the high end for a small IC50.
